Measured values taken from ChEMBL document CHEMBL3739352, “Anticonvulsant activity, crystal structures, and preliminary safety evaluation of N-trans-cinnamoyl derivatives of selected (un)modified aminoalkanols” (Eur J Med Chem, 2016).

What was measured:
[1] = Protection index, ratio of TD50 for neurotoxicity in po dosed Sprague-Dawley rat to ED50 for anticonvulsant activity in po dosed Sprague-Dawley rat assessed as maximal electroshock-induced seizures; assay type: toxicity, organism-based; conditions: in vivo
[2] = Protection index, ratio of TD50 for neurotoxicity in ip dosed albino Carworth Farms No.1 mouse to ED50 for anticonvulsant activity in ip dosed albino Carworth Farms No.1 mouse assessed as protection against maximal electroshock-induced seizures; assay type: toxicity, organism-based; conditions: in vivo, read-out: Ratio TD50/ED50
Procedure, shortened: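 Graded i.p. doses in 0.5% methylcellulose were given to albino Carworth Farms No.1 mice. ED50 was determined in MES, scPTZ or 6-Hz (32 mA) tests, and TD50 by rotarod. Both were reported with 95% confidence intervals. PI was calculated as TD50/ED50.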

NC(=O)N1c2ccccc2C=Cc2ccccc21 [CARBAMAZEPINE]
selectivity ratio [1]: > 68 | selectivity ratio [2]: 5.8
